In US20080081781A1, “Methods and compositions for the treatment of metabolic syndrome” (priority 2004, published 2008):

Assay: Pharmacokinetics of 3H-berberine in rabbits, intravenous and intravenous drip
Method: 0.1 ml of blood was removed at various times and radiation emissions were measured.

[1] = 5 rabbits, intravenously 25 MBq/kg
[2] = four rabbits, intravenous drip 46.25 Mbq/kg

3H-berberine
T1/2α [1]: 1.41 ± 0.16 h | T1/2β [1]: 35.3 ± 1.3 h | T1/2α [2]: 1.03 ± 0.11 h | T1/2β [2]: 35.8 ± 2.0 h
